Measurements: PubChem BioAssay (NCI)
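Dose response: 5 concentrations. Exposure: 48 h. Format: 96-well plates. Endpoint: linear interpolation; highest concentration if not reached. The concentration for 50% growth inhibition is given as GI50. TGI: total growth inhibition.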

System: MDA-MB-468 breast
Test: NCI-60 cell line screen, 48 h

O=C(Nc1cc([As](=O)(O)O)ccc1O)c1ccccc1
GI50: > 100 µM
TGI: > 100 µM
